Only a part is listed here, and it is no random draw. Activity calls are given as the source filed them.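 Rule for the calls: active = pattern-corrected inhibition of lipid staining of at least 50% with the nuclear-stain viability signal not falling by more than 50%; inactive = the rest, inconclusive results apart.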

This test is described as follows: inhibitors of triacylglycerol accumulation, primary screen, cell-based, uHTS, fluorescence, H9c2 (AID 651582).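 Note: 0% = DMSO wells and 100% = triacsin C control wells.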 Conditions: H9c2 cells, Nile Red lipid (TAG) fluorescence; at 12.5 µM; active compounds read high; cells loaded with 200 µM oleic acid.
For the molecule `COc1ccccc1OP(C)(=O)Nc1ccccc1Br` (stereo unspecified), the inhibition is inactive: -26.5%.
The value for `C[N+]1=C2C=CC=CC=C2SC12C([N+](=O)[O-])=CC([N+](=O)[O-])=C[C-]2[N+](=O)[O-]` (stereo unspecified) was inactive: 92.8%; that for `c1cc(-c2nn[nH]n2)ccc1-c1nn[nH]n1` was inactive: 9.2%; that for `CC1CCN(C(=O)Oc2c(Cl)cc(Cl)c3cccnc23)CC1` was inactive: -4.75%.
Take `CN(C)C(=O)c1c([N+](=O)[O-])cc([N+](=O)[O-])cc1[N+](=O)[O-]`: the inhibition was inactive: 33.9%.
As for `CC(C)=N/N=C(\N)N[N+](=O)[O-]`, the inhibition is inactive: 4.62%.
The result for `CC(C)c1nc(Nc2ccccc2)n(P(=O)(N(C)C)N(C)C)n1` reads inactive: 12.7%; that for `COc1ccccc1OP(C)(=O)Nc1ccc(Br)cc1` (stereo unspecified), inactive: -3.15%; that for `CN(C(=O)Cc1ccc(Cl)c(Cl)c1)[C@H]1CCCC[C@H]1N1CCCC1`, inactive: -20.2%.
For the molecule `Cc1ccc(N/C(=N/P(=O)(N2CCOCC2)N2CCOCC2)N2CCOCC2)cc1`, the inhibition was inactive: -7.81%.
The value for `NC(=O)c1cc([N+](=O)[O-])cc([N+](=O)[O-])c1N` was inactive: 2.97%; that for `Clc1ccc(Cl)c(NC2=NCC(CBr)S2)c1` (stereo unspecified) was inactive: -18.4%; that for `CN1CCCC(OC(=O)C(c2ccccc2)c2ccccc2)C1` (stereo unspecified) was inactive: -1.07%.
`COc1ccccc1OP(=O)(Nc1ccc(C)cn1)Oc1ccccc1OC`: the inhibition is inactive: -28.3%.
The value for `Cc1ccc(OP(=O)(Nc2nccs2)Oc2ccc(C)cc2)cc1` was inactive: -21.9%.
The result for `O=[N+]([O-])c1cc([N+](=O)[O-])c(Nc2ccccn2)c([N+](=O)[O-])c1` reads inactive: -13.6%; that for `Cc1c(NP(C)(=O)Oc2ccc(C(C)C)cc2)c(=O)n(-c2ccccc2)n1C` (stereo unspecified), inactive: 6.58%.
The value for `Nc1cc(N)c2nonc2c1[N+](=O)[O-]` was inactive: 3.14%; that for `CCc1ccc(OP(C)(=O)O)cc1` was inactive: 8.39%; that for `CP(=O)(Nc1ccccn1)Oc1ccccc1` (stereo unspecified) was inactive: -29.6%.
As for `COc1ccccc1OP(C)(=O)Nc1ccc(C)cc1C` (stereo unspecified), the inhibition is inactive: -60.2%.
The value for `O=C1C(O)=C([N+](=O)[O-])C(=O)C(O)=C1[N+](=O)[O-]` was inactive: 6.96%; that for `Cc1cc(C)cc(OP(C)(=O)Nc2cccc(C(F)(F)F)c2)c1` (stereo unspecified) was inactive: 13.5%.
The value for `CN(C)P(=O)(N(C)C)n1c(Nc2ccccc2)nnc1-c1ccccc1` was inactive: 17.9%; that for `O=P(Nc1nc2ccc(Cl)cc2s1)(c1ccccc1)c1ccccc1` was inactive: -3.4%; that for `CCCC1OP(N)(=O)OCC1CC` (stereo unspecified) was inactive: -13.6%.
On to `Cc1ccc(NP(=O)(Oc2ccccc2F)Oc2ccccc2F)nc1`, for which the inhibition was inactive: -24.9%.
The result for `CN(C(=O)Cc1ccc(Cl)c(Cl)c1)[C@H]1CCCC[C@@H]1N1CCCC1` reads inactive: 0.668%; that for `CP(=O)(OCCOc1ccccc1)OCCOc1ccccc1`, inactive: 19%; that for `CP(=O)(Nc1ccc(Cl)cc1Cl)Oc1ccccc1` (stereo unspecified), inactive: -22.9%.
The value for `CCCCCCCCCCCCCCCC1C[N+](C)(C)CCOP(C)(=O)O1` (stereo unspecified) was inactive: -1.79%.

These data come from PubChem BioAssay AID651582 (Sanford-Burnham Center for Chemical Genomics, 2012).
